Measurements taken from ChEMBL document CHEMBL4673287, “Synthesis and biological evaluation of novel antipsychotic trans-4-(2-(1,2,4,5-tetrahydro-3H-benzo[d]azepin-3-yl)ethyl)cyclohexan-1-amine derivatives targeting dopamine/serotonin receptor subtypes” (Bioorg Med Chem Lett, 2021).

The chains behind the UniProt entries cited, without tags or fusion partners.
UniProt P35367, whole entry: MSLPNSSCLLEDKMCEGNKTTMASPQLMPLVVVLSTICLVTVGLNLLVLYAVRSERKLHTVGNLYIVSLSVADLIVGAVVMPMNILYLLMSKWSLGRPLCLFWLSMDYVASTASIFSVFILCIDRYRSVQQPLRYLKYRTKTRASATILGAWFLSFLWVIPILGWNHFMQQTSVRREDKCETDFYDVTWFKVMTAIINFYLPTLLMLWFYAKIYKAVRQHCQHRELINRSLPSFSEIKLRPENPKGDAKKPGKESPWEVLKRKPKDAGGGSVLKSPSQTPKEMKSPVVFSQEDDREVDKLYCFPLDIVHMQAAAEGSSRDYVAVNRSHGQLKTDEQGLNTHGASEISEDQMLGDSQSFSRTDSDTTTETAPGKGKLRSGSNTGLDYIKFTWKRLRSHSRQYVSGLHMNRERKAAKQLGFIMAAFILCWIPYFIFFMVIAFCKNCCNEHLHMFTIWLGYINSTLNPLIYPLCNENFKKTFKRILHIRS

Target: Histamine H1 receptor (Homo sapiens, UniProt P35367)
Experiment: Displacement of [3H]-pyrilamine from human H1 histamine receptor expressed in human HEK293 cells
Assay type: cell-based

Ki [µM] | Compound
0.293 | C[C@H]1CN(CC[C@H]2CC[C@H](N3C(=O)CC4(CCCC4)CC3=O)CC2)CCc2ccc(Cl)cc21
0.0821 | C[C@H]1CN(CC[C@H]2CC[C@H](NC(=O)c3ccco3)CC2)CCc2ccc(Cl)cc21
0.195 | C[C@H]1CN(CC[C@H]2CC[C@H](N3C(=O)[C@@H]4[C@@H]5CC[C@@H](C5)[C@@H]4C3=O)CC2)CCc2ccc(Cl)cc21
0.312 | C[C@H]1CN(CC[C@H]2CC[C@H](N3C(=O)[C@@H]4[C@H](C3=O)[C@@H]3C=C[C@H]4C3)CC2)CCc2ccc(Cl)cc21
